From US20020016341A1, “Heterocyclic thioester and ketone hair growth compositions and uses” (priority 1998, published 2002)

Sequences of proteins named here, by UniProt entry; tags and fusion partners are left off.
UniProt P62942, whole entry, species assumed: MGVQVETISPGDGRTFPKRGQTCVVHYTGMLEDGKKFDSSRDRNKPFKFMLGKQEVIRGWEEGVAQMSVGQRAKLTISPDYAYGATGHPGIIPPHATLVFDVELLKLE

Molecular target: FKBP12 (Homo sapiens, UniProt P62942)
Experiment: Ki test: inhibition of peptidyl-prolyl isomerase (rotamase) activity, chymotrypsin-coupled assay
Format: biochemical
Conditions: apparent Ki
Source text: The inhibition of the prolyl peptidyl cis-trans isomerase activity of FKBP may be measured as an indicator of this affinity.
Inhibition of the peptidyl-prolyl isomerase (rotamase) activity of the compounds used in the inventive methods and pharmaceutical compositions can be evaluated by known methods described in the literature (Harding et al., Nature, 1989, 341:758-760; Holt et al. J. Am. Chem. Soc., 115:9923-9938).
The cis-trans isomerization of an alanine-proline bond in a model substrate, N-succinyl-Ala-Ala-Pro-Phe-p-nitroanilide, is monitored spectrophotometrically in a chymotrypsin-coupled assay, which releases paranitroanilide from the trans form of the substrate. The inhibition of this reaction caused by the addition of different concentrations of inhibitor is determined, and the data is analyzed as a change in first-order rate constant as a function of inhibitor concentration to yield the apparent K1 values.
In a plastic cuvette are added […] of ice cold assay buffer (25 mM HEPES, pH 7.8, 100 mM NaCl), 10 mL of FKBP (2.5 mM in 10 mM Tris-Cl pH 7.5, 100 mM NaCl, 1 mM dithiothreitol), 25 mL of chymotrypsin (50 mg/ml in 1 mM HCl) and […] of test compound at various concentrations in dimethyl sulfoxide. […]
The absorbance at 390 nm versus time is monitored for 90 seconds using a spectrophotometer and the rate constants are determined from the absorbance versus time data files.

3-Phenyl-1-propyl (2S)-1-(3,3-dimethyl-1,2-dioxopentyl)-2-pyrrolidinecarbothioate [Compound 30]
Ki: 11 nM
